{
  "source": "patent US9072756B2",
  "about": "“Methods and compositions for increasing the efficacy of an agent that directly or indirectly affects a muscarinic receptor through administration of a pyrophosphate analog” (HealthPartners Research Foundation, priority 2000, dated 2015)",
  "system": "muscarinic acetylcholine receptor (mAChR)",
  "test": "Protection of mAChR from inactivation by the endogenous LMW inhibitor, [3H]QNB (antagonist) binding",
  "parameters": "species or system human",
  "conditions": "3H-QNB binding, FIGS. 4-7, 15, 17, 19",
  "data": [
    {"substance": "guanylimidodiphosphate", "values": [
      {"measurement": "protection of the mAChR from inactivation by the LMW inhibitor (in words)", "result": "protect the mAChR from inactivation"}
    ]}
  ]
}
